## Ab-14 heavy chain CDR variants: yeast mating affinities

Data: MIT Lincoln Laboratory AlphaSeq set, Li et al. 2023, doi:10.1038/s41467-023-39022-2, as distributed in FLAb.

Target peptide (SARS-CoV-2 spike, HR2 region): PDVDLGDISGINAS

Parent scFv Ab-14: VH joined to VL by a 15-residue (Gly4Ser)3 linker. Changes lie in the heavy chain CDRs alone.
VH: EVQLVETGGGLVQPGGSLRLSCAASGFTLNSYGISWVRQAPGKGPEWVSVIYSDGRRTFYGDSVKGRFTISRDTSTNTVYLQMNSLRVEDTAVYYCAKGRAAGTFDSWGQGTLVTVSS
VL: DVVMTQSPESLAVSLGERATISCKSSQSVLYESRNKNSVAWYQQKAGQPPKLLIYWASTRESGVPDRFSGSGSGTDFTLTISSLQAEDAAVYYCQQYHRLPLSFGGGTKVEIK

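The parent was found by panning a naive human phage display library on the peptide. These sequences belong to a second round, designed from the earlier measurements on random variants of the parent. Their group label is 14H_En_Gibbs (En: ensemble of fine-tuned language models; Gibbs: Gibbs sampling). Affinity was read by AlphaSeq, a pooled yeast mating assay with surface-displayed partners. After mating in shaken culture at 30 °C for 16 h, diploids were selected and their barcode pairs sequenced. A regression on co-assayed BCL2-family reference pairs converts the normalised counts of each replicate to an apparent Kd. There are six technical replicates.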

Each variant is given by its three heavy chain CDRs, as the data file delimits them; those of the parent are GFTLNSYGIS, VIYSDGRRTFYGDSVK, GRAAGTFDS. Affinities are written as log10 Kd with Kd in nM; a lower number is a better binder. Where no diploid with the target was found in that replicate, the entry reads "nd": below detection, most likely a poor binder, though not proof of it. As a blank, each scFv also met three strains without target: over all heavy chain designs, 1% of these pairings were detected, typically at 2.08 and seldom below 0.84. The control count says in how many pairings with the empty strains this scFv gave a signal, with their mean in brackets. The authors averaged sequences with at least three values out of six and counted those with two or fewer as poor binders. Values of this round are not directly comparable with the first-round values of the same sequences.

{"CDR-H1": "GFDFQEYGIS", "CDR-H2": "VIYADGLRTAYANSVK", "CDR-H3": "GGSNALTTV", "log10 Kd (nM) by replicate": "nd nd nd nd nd nd", "empty controls": "0/18"}
{"CDR-H1": "GFDLEEYGIS", "CDR-H2": "VIYADGLRQYAQDNVK", "CDR-H3": "GLRSGMGIT", "log10 Kd (nM) by replicate": "nd nd nd nd nd nd", "empty controls": "0/18"}
{"CDR-H1": "GMDLGEYGIS", "CDR-H2": "VIYADGERASYTNNFK", "CDR-H3": "GVSAGTLTV", "log10 Kd (nM) by replicate": "0.83 nd nd nd nd nd", "empty controls": "0/18"}
{"CDR-H1": "GFQLDEVGIS", "CDR-H2": "VIYADGIRRAYASKVK", "CDR-H3": "GGEAASFDL", "log10 Kd (nM) by replicate": "nd nd nd nd nd nd", "empty controls": "0/18"}
{"CDR-H1": "GDSLNEYGIS", "CDR-H2": "VIYADGVRAAYADPVK", "CDR-H3": "GENDGLFDQ", "log10 Kd (nM) by replicate": "nd nd nd nd nd nd", "empty controls": "0/18"}
{"CDR-H1": "GFSIDEYGIS", "CDR-H2": "VIYADGTRTAYADDVK", "CDR-H3": "GAYDTVAVL", "log10 Kd (nM) by replicate": "nd nd nd nd 3.36 nd", "empty controls": "0/18"}
{"CDR-H1": "GEDLDEYGIS", "CDR-H2": "VIYADGRRVVYQDQVK", "CDR-H3": "GELAGTVDQ", "log10 Kd (nM) by replicate": "2.40 2.39 2.57 nd 1.75 4.20", "empty controls": "1/18 (1.80)"}
{"CDR-H1": "GNVLDEYGIS", "CDR-H2": "VIYADGMRTSYQQNFK", "CDR-H3": "GQEGDNFMT", "log10 Kd (nM) by replicate": "nd nd nd nd nd nd", "empty controls": "0/18"}
{"CDR-H1": "GNSLDEYGIS", "CDR-H2": "VIYADGMRTAYTDDFK", "CDR-H3": "GVVSNTLVD", "log10 Kd (nM) by replicate": "nd nd nd nd nd nd", "empty controls": "0/18"}
{"CDR-H1": "GFNLDEYGIS", "CDR-H2": "VIYADGRRTAYKDTVK", "CDR-H3": "GVRTWQFDL", "log10 Kd (nM) by replicate": "nd nd nd nd nd nd", "empty controls": "1/18 (2.50)"}
{"CDR-H1": "GFDLREMGIS", "CDR-H2": "VIYADGRRVAYNDKVK", "CDR-H3": "GNLTGTFDQ", "log10 Kd (nM) by replicate": "nd nd nd nd nd nd", "empty controls": "0/18"}
{"CDR-H1": "EFDLNNYGIS", "CDR-H2": "VIYADGLRTAYETSVK", "CDR-H3": "GDVAGTFVS", "log10 Kd (nM) by replicate": "2.49 1.29 0.32 0.43 0.78 0.49", "empty controls": "1/18 (2.22)"}
{"CDR-H1": "GFNLDQYGIS", "CDR-H2": "VIYADGQRTQYANDVK", "CDR-H3": "GKYAGSMLS", "log10 Kd (nM) by replicate": "nd nd nd nd nd nd", "empty controls": "0/18"}
{"CDR-H1": "GKSLDEMGIS", "CDR-H2": "VIYADGHRTMYANDVK", "CDR-H3": "GHVGAIFMM", "log10 Kd (nM) by replicate": "nd nd nd nd nd nd", "empty controls": "0/18"}
{"CDR-H1": "GDSLEEYGIS", "CDR-H2": "VIYADGKRTAYKNKAK", "CDR-H3": "GKVAGYFDV", "log10 Kd (nM) by replicate": "nd nd nd nd nd nd", "empty controls": "0/18"}
{"CDR-H1": "GFNIGEYGIS", "CDR-H2": "VIYADGKRTAYSESVK", "CDR-H3": "GNSAGTFNH", "log10 Kd (nM) by replicate": "0.75 0.90 0.69 0.38 0.61 0.58", "empty controls": "1/18 (2.41)"}
{"CDR-H1": "GFDLDEQGIS", "CDR-H2": "VIYADGQRTAYADQVK", "CDR-H3": "GMIGDIFRT", "log10 Kd (nM) by replicate": "nd nd nd nd nd nd", "empty controls": "0/18"}
{"CDR-H1": "GFDLNEYGIS", "CDR-H2": "VIYADGVRRTYQDAVK", "CDR-H3": "VHNSGVIDV", "log10 Kd (nM) by replicate": "nd nd nd nd nd nd", "empty controls": "0/18"}
{"CDR-H1": "GFDISEYGIS", "CDR-H2": "VIYADGKKTQFKNTVK", "CDR-H3": "GELGGTFNV", "log10 Kd (nM) by replicate": "nd nd nd 1.68 nd nd", "empty controls": "0/18"}

Extract of 3 entries:

{"CDR-H1": "GFDLDEQGIS", "CDR-H2": "VIYADGQRTAYADQVK", "CDR-H3": "GMIGDIFRT", "log10 Kd (nM) by replicate": "nd nd nd nd nd nd", "empty controls": "0/18"}
{"CDR-H1": "EFDLNNYGIS", "CDR-H2": "VIYADGLRTAYETSVK", "CDR-H3": "GDVAGTFVS", "log10 Kd (nM) by replicate": "2.49 1.29 0.32 0.43 0.78 0.49", "empty controls": "1/18 (2.22)"}
{"CDR-H1": "GFDLNEYGIS", "CDR-H2": "VIYADGVRRTYQDAVK", "CDR-H3": "VHNSGVIDV", "log10 Kd (nM) by replicate": "nd nd nd nd nd nd", "empty controls": "0/18"}